Biological target: human pancreatic α-amylase (HPA) (Homo sapiens, UniProt P04746)
Test: Inhibition of wild-type human pancreatic α-amylase (HPA), kinetic KI determination with CNP-G3
Format: biochemical
Conditions: read-out: Ki of HPA, CNP-G3 substrate, pH 7.0, 30° C., competitive inhibition model

By UniProt entry, the sequences of proteins in these tests, tags left out. Residues count along the entry.
UniProt P04746, 16-511 limits assumed: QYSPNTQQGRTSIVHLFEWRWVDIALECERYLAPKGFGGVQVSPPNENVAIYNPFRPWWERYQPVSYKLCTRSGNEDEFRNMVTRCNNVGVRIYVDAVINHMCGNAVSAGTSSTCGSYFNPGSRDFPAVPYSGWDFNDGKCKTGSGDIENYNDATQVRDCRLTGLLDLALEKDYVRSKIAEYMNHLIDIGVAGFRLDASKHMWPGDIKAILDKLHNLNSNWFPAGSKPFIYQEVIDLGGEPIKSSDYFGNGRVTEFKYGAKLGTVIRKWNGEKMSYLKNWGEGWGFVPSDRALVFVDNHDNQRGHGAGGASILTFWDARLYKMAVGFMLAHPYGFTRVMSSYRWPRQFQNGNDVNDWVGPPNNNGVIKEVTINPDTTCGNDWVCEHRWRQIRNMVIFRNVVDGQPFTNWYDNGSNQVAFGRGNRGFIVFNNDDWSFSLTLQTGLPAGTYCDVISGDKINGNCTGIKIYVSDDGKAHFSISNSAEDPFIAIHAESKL

Compound: C[C@@H]1O[C@@H](O[C@@H]2CO[C@@H](Oc3c(O)cc(-c4oc5cc(O)cc(O)c5c(=O)c4O[C@@H]4O[C@@H](C)[C@H](O)[C@@H](O)[C@H]4O[C@@H]4O[C@H](COC(=O)/C=C/c5ccc(O)c(O)c5)[C@@H](O)[C@H](O)[C@H]4O)cc3O)[C@H](O)[C@H]2O)[C@H](O)[C@H](O)[C@H]1O
- Ki: 9 nM

Reference: US11608353B2, “Amylase inhibitor compounds, methods of their use and compositions thereof” (THE UNIVERSITY OF BRITISH COLUMBIA, priority 2016, dated 2023)
